The values that follow come from patent US12139488B2, “Pyrido[3,2-d]pyrimidine compounds uses thereof for treating a proliferative disease” (Universite de Montreal, priority 2021, dated 2024).

Chains of the proteins cited; added tags and fusions are not shown.
UniProt P15056, whole entry: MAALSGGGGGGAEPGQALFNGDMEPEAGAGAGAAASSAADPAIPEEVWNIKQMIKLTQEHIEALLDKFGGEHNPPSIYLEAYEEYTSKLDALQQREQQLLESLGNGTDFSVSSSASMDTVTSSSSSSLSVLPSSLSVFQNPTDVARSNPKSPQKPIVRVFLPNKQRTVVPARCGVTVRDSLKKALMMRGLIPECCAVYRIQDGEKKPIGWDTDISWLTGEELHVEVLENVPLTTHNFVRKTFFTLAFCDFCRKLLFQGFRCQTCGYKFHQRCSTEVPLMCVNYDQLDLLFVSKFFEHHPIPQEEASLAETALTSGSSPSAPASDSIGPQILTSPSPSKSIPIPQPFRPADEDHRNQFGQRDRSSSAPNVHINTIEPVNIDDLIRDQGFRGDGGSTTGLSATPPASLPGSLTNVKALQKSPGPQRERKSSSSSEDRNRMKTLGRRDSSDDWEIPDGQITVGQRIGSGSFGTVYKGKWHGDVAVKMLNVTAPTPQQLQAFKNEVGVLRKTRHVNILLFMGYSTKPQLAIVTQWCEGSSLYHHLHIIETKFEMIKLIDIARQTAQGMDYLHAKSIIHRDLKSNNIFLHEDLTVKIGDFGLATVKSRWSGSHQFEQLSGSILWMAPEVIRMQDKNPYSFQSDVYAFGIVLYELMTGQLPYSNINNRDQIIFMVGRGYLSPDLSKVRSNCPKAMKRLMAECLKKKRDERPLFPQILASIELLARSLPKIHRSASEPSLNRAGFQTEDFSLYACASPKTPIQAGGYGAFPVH
UniProt P04049, whole entry: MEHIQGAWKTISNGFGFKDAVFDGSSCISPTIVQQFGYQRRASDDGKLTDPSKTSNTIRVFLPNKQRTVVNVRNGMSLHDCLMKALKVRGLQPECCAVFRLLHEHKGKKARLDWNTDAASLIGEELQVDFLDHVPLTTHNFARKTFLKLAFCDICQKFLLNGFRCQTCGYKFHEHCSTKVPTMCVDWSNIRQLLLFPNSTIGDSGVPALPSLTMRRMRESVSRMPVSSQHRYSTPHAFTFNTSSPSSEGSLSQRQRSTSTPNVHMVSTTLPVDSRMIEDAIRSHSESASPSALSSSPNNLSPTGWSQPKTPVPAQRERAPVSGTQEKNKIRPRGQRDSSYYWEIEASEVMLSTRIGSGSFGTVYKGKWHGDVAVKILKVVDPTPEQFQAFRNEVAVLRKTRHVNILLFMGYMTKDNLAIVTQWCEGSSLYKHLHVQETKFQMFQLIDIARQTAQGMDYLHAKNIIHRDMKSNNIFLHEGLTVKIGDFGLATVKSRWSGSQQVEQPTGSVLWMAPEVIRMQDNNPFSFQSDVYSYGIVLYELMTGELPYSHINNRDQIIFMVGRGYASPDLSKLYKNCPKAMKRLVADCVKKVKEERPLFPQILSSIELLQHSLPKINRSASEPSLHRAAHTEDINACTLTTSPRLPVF

Like-named read-outs stand apart in the source and are kept apart here. Where only a bound is given, the exact number is not on record here.

One test has as its target BRAF (Homo sapiens (Human), UniProt P15056). Kind of test: BRAF kinase activity assay (ADP-Glo). On the technique in general: In ADP-Glo the light output rises with the ADP produced.
The target of the next test is CRAF (Homo sapiens, UniProt P04049). Kind of test: CRAF kinase activity assay (ADP-Glo).
The test system of test [1] is pERK in HCT-116 cells (KRAS G13D). Kind of test: Phospho-ERK inhibition (AlphaLISA SureFire Ultra p-ERK 1/2), HCT116. Particulars: for HCT116 pERK % Ymin (lowest value of the IC50 curve): Ymin above −20% = minimal or no paradoxical activation. Put shortly: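 p-ERK1/2 (Thr202/Tyr204) in lysates measured by AlphaLISA after 1 h compound exposure of overnight-plated cells (RPMI-1640, 5% FBS, 0.5% DMSO, ten concentrations, usually from 10 μM). Background from a trametinib control subtracted, inhibition normalised to vehicle, and IC50 fitted with a variable-slope four-parameter model.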
On the technique in general: In Alpha technology, singlet oxygen from a donor bead excites a nearby acceptor bead.

The mark [2] stands for this setting: read-out: Kinase IC50 (nM) BRAF, tested form: formate.
Setting [3] is: read-out: Kinase IC50 (nM) CRAF, tested form: formate.
Setting [4] is: HCT116 cells, Ymin in brackets, tested form: formate.
The mark [5] stands for this setting: read-out: HCT116 pERK IC50, HCT116 cells, class symbol before the bracket, tested form: formate.
Where [6] appears, read: read-out: Kinase IC50 (nM) BRAF.
[7] abbreviates: read-out: Kinase IC50 (nM) CRAF.
Where [8] appears, read: read-out: HCT116 pERK IC50, HCT116 cells, class symbol before the bracket.
Where [9] appears, read: read-out: Kinase IC50 (nM), BRAF biochemical kinase assay, BRAF.
Where [10] appears, read: read-out: Kinase IC50 (nM), CRAF biochemical kinase assay, CRAF.
[11] abbreviates: read-out: HCT116 pERK IC50, HCT116 cells.

Broadly, the IC50 is the midpoint of a concentration-inhibition curve. In the case of `Cc1c(F)cccc1S(=O)(=O)Nc1ccc(F)c(Nc2ncnc3ccc(-n4nc(C(=O)N5CC6CC(C5)N6)c5ccccc54)nc23)c1F`, the results for the IC50 (on BRAF (setting [2]); on CRAF (setting [3]); in test [1] (setting [5])) were under 1 nM, over 50 nM and under 0.5 µM, respectively. The “HCT116 pERK Ymin %” value in test [1] (setting [4]) was −0.4%.

With `Cc1c(F)cccc1S(=O)(=O)Nc1ccc(F)c(Nc2ncnc3ccc(-n4nc(C(=O)N5CC6(CCNCC6)C5)c5ccccc54)nc23)c1F`, the IC50 at BRAF (setting [6]) is under 1 nM; at CRAF (setting [7]), 10 to 50 nM; in test [1] (setting [8]), 1 to 10 µM. Moreover, the “HCT116 pERK Ymin %” value in test [1] (HCT116 cells, Ymin in brackets) is listed as −1.2%.

For the compound `O=S(=O)(Nc1ccc(F)c(Nc2ncnc3ccc(-n4cnc5c(N6CCC(CO)CC6)cccc54)nc23)c1F)c1cccc(Cl)c1Cl`, the figures for the half-inhibitory concentration (IC50) (at BRAF (setting [9]); on CRAF (setting [10]); in test [1] (setting [11])) were 1 to 10 nM, under 10 nM and under 0.5 µM, respectively. The “HCT116 pERK % Ymin (lowest value of the IC50 curve)” value (shortened to “HCT116 pERK % Ymin”) in test [1] (HCT116 cells) is listed as −7%.

For the compound `CN(C)CCN(C)C(=O)c1cn(-c2ccc3ncnc(Nc4c(F)ccc(NS(=O)(=O)c5ccccc5Cl)c4F)c3n2)c2ccccc12`, the results for the 50% inhibitory concentration (IC50) (at BRAF (setting [2]); at CRAF (setting [3]); in test [1] (setting [5])) were under 1 nM, over 50 nM and under 0.5 µM, respectively. Besides, the “HCT116 pERK Ymin %” value in test [1] (setting [4]) is given as −10%.

As to `COC1CCN(c2cccc3c2ncn3-c2ccc3ncnc(Nc4c(F)ccc(NS(=O)(=O)c5cccc(Cl)c5C)c4F)c3n2)CC1`, the results for the half-maximal inhibitory concentration (IC50) (at BRAF (setting [9]); at CRAF (setting [10]); in test [1] (setting [11])) were 1 to 10 nM, 10 to 50 nM and under 0.5 µM, respectively. Moreover, the “HCT116 pERK % Ymin” value in test [1] (HCT116 cells) is −6%.

Regarding `Cc1c(Cl)cccc1S(=O)(=O)Nc1ccc(F)c(Nc2ncnc3ccc(-n4cc(S(=O)(=O)N5CCN(C)CC5)c5ccccc54)nc23)c1F`, the values for the IC50 (on BRAF (setting [6]); at CRAF (setting [7]); in test [1] (setting [8])) were 1 to 10 nM, under 10 nM and under 0.5 µM, respectively. The “HCT116 pERK Ymin %” value in test [1] (HCT116 cells, Ymin in brackets) was −5.8%.

As for `CCC1(O)CCN(c2cccc3c2ncn3-c2ccc3ncnc(Nc4c(F)ccc(NS(=O)(=O)c5ccc(OC)c(Cl)c5C)c4F)c3n2)CC1`, the values for the IC50 (at BRAF (setting [9]); at CRAF (setting [10]); in test [1] (setting [11])) were 1 to 10 nM, 10 to 50 nM and under 0.5 µM, respectively. Moreover, the “HCT116 pERK % Ymin” value in test [1] (HCT116 cells) is 4%.

With `O=S(=O)(Nc1ccc(F)c(Nc2ncnc3ccc(-n4cnc5c(N6CCC(O)(CF)CC6)cccc54)nc23)c1F)c1cccc(Cl)c1Cl`, the IC50 is under 1 nM on BRAF (setting [9]), under 10 nM on CRAF (setting [10]) and under 0.5 µM in test [1] (setting [11]). In addition, in test [1] (HCT116 cells), the “HCT116 pERK % Ymin” value was −5%.

With `O=C1CCCC12CCN(c1cccc3c1ncn3-c1ccc3ncnc(Nc4c(F)ccc(NS(=O)(=O)c5cccc(Cl)c5Cl)c4F)c3n1)CC2`, the IC50 is 1 to 10 nM on BRAF (setting [9]), 10 to 50 nM on CRAF (setting [10]) and under 0.5 µM in test [1] (setting [11]). Moreover, the “HCT116 pERK % Ymin” value in test [1] (HCT116 cells) came to 2%.

As to `O=S(=O)(Nc1ccc(F)c(Nc2ncnc3ccc(-n4cnc5ccccc54)nc23)c1F)c1cccc(Cl)c1C(F)(F)F`, the concentration for half-maximal inhibition (IC50) on BRAF (setting [6]) was 1 to 10 nM; on CRAF (setting [7]) it was under 10 nM; in test [1] (read-out: HCT116 pERK IC50 in μM, HCT116 cells, 1 h treatment) it was under 0.5 µM. In addition, the “HCT116 pERK Ymin %” value in test [1] (lowest % inhibition value of the IC50 curve, HCT116) is −8%.

`Cc1c(Cl)cccc1S(=O)(=O)Nc1ccc(F)c(Nc2ncnc3ccc(-n4nnc5ccccc54)nc23)c1F`: the IC50 is 1 to 10 nM on BRAF (setting [6]), under 10 nM on CRAF (setting [7]) and under 0.5 µM in test [1] (setting [8]). The “HCT116 pERK Ymin %” value in test [1] (HCT116 cells, Ymin in brackets) was found to be 3.7%.

Take `CC1(C#N)CCN(c2cccc3c2ncn3-c2ccc3ncnc(Nc4c(F)ccc(NS(=O)(=O)c5cccc(Cl)c5Cl)c4F)c3n2)CC1`: the 50% inhibitory concentration (IC50) on BRAF (setting [9]) is over 10 nM; on CRAF (setting [10]), 10 to 50 nM; in test [1] (setting [11]) it was under 0.5 µM. In addition, the “HCT116 pERK % Ymin” value in test [1] (HCT116 cells) was −14%.

Turning to `Cc1c(Cl)cccc1S(=O)(=O)Nc1ccc(F)c(Nc2ncnc3ccc(-n4cnc5c(N6CCC[C@H](O)C6)cccc54)nc23)c1F`, the IC50 at BRAF (setting [9]) is under 1 nM; on CRAF (setting [10]) it was under 10 nM; in test [1] (setting [11]), under 0.5 µM. In test [1] (HCT116 cells), the “HCT116 pERK % Ymin” value amounted to 8%.

Consider `CC(C)(C)CN1CCN(c2cccc3c2nnn3-c2ccc3ncnc(Nc4c(F)ccc(NS(=O)(=O)c5cccc(Cl)c5Cl)c4F)c3n2)CC1`, for which the IC50 fell in the range of 1 to 10 nM on BRAF (setting [9]), 10 to 50 nM at CRAF (setting [10]) and 0.5 to 1 µM in test [1] (setting [11]). Further, in test [1] (HCT116 cells), the “HCT116 pERK % Ymin” value is reported as −8%.

For `Cc1c(F)cccc1S(=O)(=O)Nc1ccc(F)c(Nc2ncnc3ccc(-n4nc(C(=O)N5CCC[C@@H](O)C5)c5ccccc54)nc23)c1F`, the half-inhibitory concentration (IC50) was 1 to 10 nM on BRAF (setting [6]), 10 to 50 nM at CRAF (setting [7]) and under 0.5 µM in test [1] (setting [8]). The “HCT116 pERK Ymin %” value in test [1] (HCT116 cells, Ymin in brackets) is reported as −6.4%.
